Key:
[1] = test system: Staphylococcus aureus; test: Selectivity ratio of IC50 for inhibition of Staphylococcus aureus Gyrase D83N mutant to IC50 for inhibition of Staphylococcus aureus Gyrase
How it was run: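 Ratio of two IC50s: the IC50 from the D83N mutant gyrase supercoiling assay (commercial kit) divided by the IC50 from the gel-based wild-type S. aureus gyrase supercoiling assay.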

[2] = test system: Staphylococcus aureus; test: Selectivity index, ratio of IC50 for inhibition of Staphylococcus aureus topoisomerase IV decatenation activity to IC50 for inhibition of Staphylococcus aureus DNA gyrase supercoiling activity
How it was run: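 Both IC50s were measured in gel-based assays with S. aureus enzymes: supercoiling inhibition for DNA gyrase and decatenation inhibition for TopoIV. The ratio is TopoIV IC50 divided by gyrase IC50.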

Compound | Ratio IC50 [1] | Ratio IC50 [2]
COc1ccc2ncc(F)c(C[C@H](O)[C@H]3OC[C@H](NCc4cc5c(nn4)OCCS5)CO3)c2n1 | 69 | 16
COc1ccc2ncc(F)c(C[C@H](O)[C@H]3OC[C@H](NCc4ccc(C)cc4)CO3)c2n1 | 41 | 17
COc1ccc2ncc(F)c(C[C@H](O)[C@H]3OC[C@H](NCc4cc5c(cn4)SCC(=O)N5)CO3)c2n1 | 398 | 2
COc1ccc2ncc(F)c(C[C@H](O)[C@H]3OC[C@H](NCc4ccc5c(n4)NC(=O)CO5)CO3)c2c1 | 59 | 15
COc1ccc2ncc(F)c(C[C@H](O)[C@H]3OC[C@H](NCc4ccc5c(c4)OCCO5)CO3)c2n1 | 45 | 6.3
COc1ccc2ncc(F)c(C(O)C[C@H]3OC[C@H](NCc4ccc5c(n4)NC(=O)CO5)CO3)c2c1 (mixture of isomers) | > 388 | 4.9
COc1ccc2ncc(F)c(C[C@H](O)[C@H]3OC[C@H](NCc4cc5c(cn4)OCCC5)CO3)c2n1 | 98 | 9.3
COc1ccc2ncc(F)c(C(O)C[C@H]3OC[C@H](NCc4ccc5c(c4)OCCO5)CO3)c2n1 (mixture of isomers) | – | 145
COc1ccc2ncc(F)c(C(O)C[C@H]3OC[C@H](NCc4ccc(Cl)c(Cl)c4)CO3)c2c1 (mixture of isomers) | – | 51
COc1ccc2ncc(F)c(C(O)C[C@H]3OC[C@H](NCc4cc5c(nn4)OCCS5)CO3)c2c1 (mixture of isomers) | – | 30
COc1ccc2ncc(=O)n(CC(O)[C@H]3OC[C@H](NCc4cc5c(cn4)OCCO5)CO3)c2n1 (mixture of isomers) | – | 165
COc1ccc2ncc(F)c(C(O)C[C@H]3OC[C@H](NCc4ccc5c(n4)NC(=O)CS5)CO3)c2n1 (mixture of isomers) | – | 52
COc1ccc2ncc(F)c(C[C@H](O)[C@H]3OC[C@H](NCc4cc5c(cn4)OCCO5)CO3)c2n1 | 324 | 34
COc1ccc2ncc(F)c(C[C@H](O)[C@H]3OC[C@H](NCc4cc5c(nn4)OCCO5)CO3)c2n1 | 146 | 15
COc1ccc2ncc(F)c(C[C@H](O)[C@H]3OC[C@H](NCc4cc5c(cn4)OCS5)CO3)c2n1 | 59 | 4.3
COc1ccc2ncc(F)c(C(O)C[C@H]3OC[C@H](NCc4ccc(C)cc4)CO3)c2c1 (mixture of isomers) | – | 122
COc1ccc2ccc(F)c(C[C@H](O)[C@H]3OC[C@H](NCc4ccc5c(n4)NC(=O)CO5)CO3)c2n1 | 723 | 10
COc1ccc2ncc(F)c(C(O)C[C@H]3OC[C@H](NCc4ccc5c(c4)OCCO5)CO3)c2c1 (mixture of isomers) | – | 85
COc1ccc2ncc(F)c(C(O)C[C@H]3OC[C@H](NCc4cc5c(cn4)OCCO5)CO3)c2n1 (mixture of isomers) | – | 55
COc1ccc2ncc(=O)n(CC(O)[C@H]3OC[C@H](NCc4ccc5c(c4)OCCO5)CO3)c2c1 (mixture of isomers) | – | 210
COc1ccc2ncc(F)c(C(O)C[C@H]3OC[C@H](NCc4ccc5c(n4)NC(=O)CS5)CO3)c2c1 (mixture of isomers) | – | 4.6
COc1ccc2ncc(F)c(C(O)C[C@H]3OC[C@H](NCc4cc5c(cn4)OCCO5)CO3)c2c1 (mixture of isomers) | – | 23
COc1ccc2ncc(F)c(C[C@H](O)[C@H]3OC[C@H](NCc4ccc(Cl)c(Cl)c4)CO3)c2n1 | 34 | 7

From ChEMBL document CHEMBL4837261, “Optimization of TopoIV Potency, ADMET Properties, and hERG Inhibition of 5-Amino-1,3-dioxane-Linked Novel Bacterial Topoisomerase Inhibitors: Identification of a Lead with In Vivo Efficacy against MRSA” (J Med Chem, 2021)
